Earlier results on one molecule are cited in paper PMC2810552 (Journal of medicinal chemistry, 2009).

In the data set the target is T1, recombinant human GR (Homo sapiens, UniProt P04150).
T1 sequence (P04150 1-777): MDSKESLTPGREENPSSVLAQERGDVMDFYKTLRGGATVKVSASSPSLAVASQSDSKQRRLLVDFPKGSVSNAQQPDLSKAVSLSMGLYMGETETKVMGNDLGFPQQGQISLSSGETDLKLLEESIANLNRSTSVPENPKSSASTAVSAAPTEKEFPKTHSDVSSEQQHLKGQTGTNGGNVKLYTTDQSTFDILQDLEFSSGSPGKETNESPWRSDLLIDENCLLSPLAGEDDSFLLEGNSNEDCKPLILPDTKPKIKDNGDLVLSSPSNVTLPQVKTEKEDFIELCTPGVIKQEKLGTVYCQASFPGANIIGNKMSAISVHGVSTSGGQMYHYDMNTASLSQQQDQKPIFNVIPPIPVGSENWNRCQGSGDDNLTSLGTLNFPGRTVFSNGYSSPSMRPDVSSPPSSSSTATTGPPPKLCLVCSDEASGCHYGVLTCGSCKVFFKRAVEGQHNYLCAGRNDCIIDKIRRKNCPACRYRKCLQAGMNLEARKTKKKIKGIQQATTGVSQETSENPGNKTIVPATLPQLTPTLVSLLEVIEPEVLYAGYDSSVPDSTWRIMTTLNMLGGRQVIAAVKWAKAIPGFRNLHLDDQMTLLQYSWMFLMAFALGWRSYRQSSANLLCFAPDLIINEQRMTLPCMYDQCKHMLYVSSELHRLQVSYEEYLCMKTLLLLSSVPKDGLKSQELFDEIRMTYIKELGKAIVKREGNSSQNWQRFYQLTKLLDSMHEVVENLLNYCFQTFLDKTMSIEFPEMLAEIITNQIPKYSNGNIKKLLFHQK
The following applies: cited from earlier work.

As to `C[C@@H]1C[C@H]2[C@@H]3CCC4=CC(=O)C=C[C@]4(C)[C@@]3(F)[C@@H](O)C[C@]2(C)[C@@]1(O)C(=O)CSCCNC(=S)NCCCN(C)CCCNC(=O)CCNC(=O)c1cc(NC(=O)c2cc(NC(=O)c3cc(NC(=O)c4cc(NC(=O)CCCNC(=O)c5cc(NC(=O)c6cc(NC(=O)c7cc(NC(=O)c8nccn8C)cn7C)cn6C)cn5C)cn4C)cn3C)cn2C)cn1C` [ImPy7γ-βDa-Sdex (6), ImPy7γ-βDa-Sdex], the “IC50, in vitro GR competition binding assay” value is recorded as “close to that of dex”.
